Like-named read-outs stand apart in the source and are kept apart here.
Assays:
[1] = Amount of salts delivered in the pyruvate formulations compared to amounts in human blood; details: amount delivered in the pyruvate formulation
[2] = test system: skin laser wounds in patients; details: human, in vivo
[3] = test system: skin laser wounds in patients; assay: Salts of pyruvate and SRF on skin laser wounds in patients: healing and irritation

Substance | delivered salt lower than blood levels [1] | irritation or toxicity [2] | irritation or toxicity [3] | delivered salt relative to blood levels [1]
Calcium pyruvate | 1.5 times lower | – | – | –
Magnesium pyruvate | – | irritating and possibly toxic | – | –
aluminum pyruvate | – | – | irritating and possibly toxic | 6100 × blood levels
manganese pyruvate | – | – | irritating and possibly toxic | 3,700 × blood levels

Source: patent US11458114B2, “Methods and compositions for enhancing synthesis secretion and transport of collagen to increase wound strength” (NORTH CELL PHARMACEUTICALS, INC., priority 2020, dated 2022)
